Earlier results in patent US5981555A (dated 1999).

Tested on: inflammation
Settings: Physician's Desk Reference, 51st ed.; cited from earlier work

CC(C)Cc1ccc(C(C)C(=O)O)cc1 (stereo not shown) [ibuprofen]
Minimum Anti-inflammatory Dosage: 300 mg
